Chains of the proteins cited; added tags and fusions are not shown. Residues count along the entry.
UniProt O00408, whole entry: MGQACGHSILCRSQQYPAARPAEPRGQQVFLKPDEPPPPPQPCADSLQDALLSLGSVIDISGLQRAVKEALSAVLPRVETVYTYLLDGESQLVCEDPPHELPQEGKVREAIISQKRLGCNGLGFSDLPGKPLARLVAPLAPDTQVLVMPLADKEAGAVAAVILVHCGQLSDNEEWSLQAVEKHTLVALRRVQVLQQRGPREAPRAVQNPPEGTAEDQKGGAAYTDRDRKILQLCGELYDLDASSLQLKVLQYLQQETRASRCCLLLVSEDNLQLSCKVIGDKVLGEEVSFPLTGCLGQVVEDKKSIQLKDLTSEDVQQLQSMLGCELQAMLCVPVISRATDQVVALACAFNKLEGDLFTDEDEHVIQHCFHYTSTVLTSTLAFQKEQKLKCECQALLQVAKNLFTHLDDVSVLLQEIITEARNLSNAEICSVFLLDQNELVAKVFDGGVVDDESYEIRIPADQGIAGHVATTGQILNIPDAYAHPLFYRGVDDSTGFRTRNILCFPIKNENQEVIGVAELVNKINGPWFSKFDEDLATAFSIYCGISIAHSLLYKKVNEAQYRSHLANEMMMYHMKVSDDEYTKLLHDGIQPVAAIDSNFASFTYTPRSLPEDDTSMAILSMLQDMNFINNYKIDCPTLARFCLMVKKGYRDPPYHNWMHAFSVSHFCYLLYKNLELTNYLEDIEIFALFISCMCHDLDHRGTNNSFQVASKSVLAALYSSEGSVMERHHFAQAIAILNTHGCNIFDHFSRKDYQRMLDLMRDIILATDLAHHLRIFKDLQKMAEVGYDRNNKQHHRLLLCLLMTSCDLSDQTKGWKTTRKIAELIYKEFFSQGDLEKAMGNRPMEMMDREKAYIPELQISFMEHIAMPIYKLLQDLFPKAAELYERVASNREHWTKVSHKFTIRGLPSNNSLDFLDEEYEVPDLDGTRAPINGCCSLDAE
UniProt Q9Y233, 267-1055: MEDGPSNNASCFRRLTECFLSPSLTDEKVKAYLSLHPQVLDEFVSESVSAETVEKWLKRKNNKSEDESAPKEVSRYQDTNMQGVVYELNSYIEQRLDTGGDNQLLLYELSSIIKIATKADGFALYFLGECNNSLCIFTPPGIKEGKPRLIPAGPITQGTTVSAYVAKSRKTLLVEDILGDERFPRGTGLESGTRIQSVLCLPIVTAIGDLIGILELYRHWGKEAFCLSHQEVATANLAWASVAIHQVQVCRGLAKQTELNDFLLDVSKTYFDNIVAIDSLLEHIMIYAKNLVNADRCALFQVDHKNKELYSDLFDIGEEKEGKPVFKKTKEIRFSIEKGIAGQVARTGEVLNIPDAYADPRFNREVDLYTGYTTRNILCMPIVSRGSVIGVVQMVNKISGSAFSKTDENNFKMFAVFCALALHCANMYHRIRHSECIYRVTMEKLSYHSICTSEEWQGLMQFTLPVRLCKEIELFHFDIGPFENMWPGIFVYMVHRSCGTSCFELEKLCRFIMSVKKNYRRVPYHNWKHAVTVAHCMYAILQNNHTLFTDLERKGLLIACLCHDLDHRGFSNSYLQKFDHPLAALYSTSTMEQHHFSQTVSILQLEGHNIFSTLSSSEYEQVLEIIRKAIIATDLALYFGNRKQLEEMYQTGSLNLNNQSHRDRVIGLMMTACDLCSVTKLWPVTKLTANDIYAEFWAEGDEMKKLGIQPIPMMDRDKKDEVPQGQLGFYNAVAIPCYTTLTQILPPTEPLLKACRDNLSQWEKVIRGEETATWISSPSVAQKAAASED

According to US11319321B2, “[1,2,4]triazolo[1,5-a]pyrimidine compounds as PDE2 inhibitors” (Janssen Pharmaceutica NV, priority 2016, dated 2022):

Legend:
[1] = target: Human recombinant PDE2A (hPDE2A) (Homo sapiens, UniProt O00408); assay: In vitro assay PDE2A (SPA, 3H-cGMP); type: biochemical; details: 10 μM cGMP substrate
hPDE10A2 = hPDE10A2 (Homo sapiens, UniProt Q9Y233); details: human clone; 60 nM cAMP substrate
hPDE3B = assay: In vitro assay PDE3 (SPA, 3H-cAMP); details: 0.4 μM cAMP substrate

SMILES: C[C@@H]1CCN(C(c2ccccc2)C(F)(F)F)C[C@H]1c1cc(C(F)F)nc2ncnn12 (single isomer, unassigned) [31]
- hPDE2A Emax [1]: 91%
- hPDE2A pIC50 [1]: 5.81
- hPDE10A2 or rPDE10A2 Emax (hPDE10A2): 51%
- hPDE10A2 or rPDE10A2 pIC50 (hPDE10A2): 5.01
- hPDE3B Emax (hPDE3B): 24%
- hPDE3B pIC50 (hPDE3B): <5

SMILES: Cc1cc(CN2CC[C@H](C)[C@@](F)(c3cc(C(F)F)nc4ncnn34)C2)cc(C)n1
- hPDE2A Emax [1]: 75%
- hPDE2A pIC50 [1]: 5.42
- hPDE10A2 or rPDE10A2 Emax (hPDE10A2): 13%
- hPDE10A2 or rPDE10A2 pIC50 (hPDE10A2): <5
- hPDE3B Emax (hPDE3B): 53%
- hPDE3B pIC50 (hPDE3B): ~5

SMILES: C[C@@H]1CCN(C(c2ccccc2)C(F)(F)F)C[C@H]1c1cc(C(F)F)nc2ncnn12 (single isomer, unassigned) [32]
- hPDE2A Emax [1]: 96%
- hPDE2A pIC50 [1]: 6.07
- hPDE10A2 or rPDE10A2 Emax (hPDE10A2): 46%
- hPDE10A2 or rPDE10A2 pIC50 (hPDE10A2): <5
- hPDE3B Emax (hPDE3B): 35%
- hPDE3B pIC50 (hPDE3B): <5
